For the assay, the system named is F420-dependent dehydrogenase (ORF 9). Particulars: NADPH 0.075 mM, F420 0.0025 mM, substrate 0.025 mM, ORF 8 extract as reagent; FIG. 8A/8B.

This is a selection: effects in other tests are not listed, and their absence says nothing.

As for `O=[N+]([O-])c1cc([N+](=O)[O-])c(O)c([N+](=O)[O-])c1`, the “reduction of the substrate to its Meisenheimer complex upon addition of ORF 9 extract” value is reported as “reduces”.

For the origin of these results see US6461856B2 (priority 1999, dated 2002).
